# Assay results as given in PubChem BioAssay AID588413 (Sanford-Burnham Center for Chemical Genomics, 2011).
# This is a selection; strong and weak results do not stand in their true shares. The source made the active and inactive calls.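 How the source made its calls: active means inhibition above about 55% (limit read from the data); inactive means the rest.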
# Experiment: Gli-Sufu pathway antagonists, primary screen, luciferase luminescence, Sufu-KO-LIGHT cells, uHTS (AID 588413);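 further: 0% = DMSO-treated cells and 100% = wells with medium but no cells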
# Settings: Sufu-KO-LIGHT fibroblasts, Gli luciferase reporter luminescence; at 5 µM; hits give high values
row,Compound,inhibition
1,CN(C(=O)Cc1ccc(Cl)c(Cl)c1)[C@H]1CCCC[C@H]1N1CCCC1,inactive: 10.2%
2,Cc1ccc(OP(=O)(Nc2nccs2)Oc2ccc(C)cc2)cc1,inactive: -0.32%
3,COc1ccccc1OP(=O)(Nc1ccc(C)cn1)Oc1ccccc1OC,inactive: 0.99%
4,Clc1ccc(Cl)c(NC2=NCC(CBr)S2)c1 (centres undefined),inactive: 2.97%
5,CN1CCCC(OC(=O)C(c2ccccc2)c2ccccc2)C1 (centres undefined),active: 59.3%
6,CCN(N=Nc1nonc1N)c1nonc1N,inactive: -0.9%
7,Nc1cccc2ccc([As](=O)(O)O)cc12,inactive: 1.07%
8,CCCC1OP(N)(=O)OCC1CC (centres undefined),inactive: -3.57%
9,O=C(O)c1ccccc1[As](=O)(O)O,inactive: 42.8%
10,CC(=O)Nc1ccc([As](=O)(O)O)cc1,inactive: 14.4%
11,O=P(Nc1nc2ccc(Cl)cc2s1)(c1ccccc1)c1ccccc1,inactive: -4.7%
12,Cc1ccc(NP(=O)(Oc2ccccc2F)Oc2ccccc2F)nc1,inactive: 2.67%
13,CN(C(=O)Cc1ccc(Cl)c(Cl)c1)[C@H]1CCCC[C@@H]1N1CCCC1,inactive: 5.45%
14,CCOP(=O)(Nc1ccccc1)OCC,inactive: -11.7%
15,Cc1cc(SC(NC(=O)c2ccc(F)cc2)C(Cl)(Cl)Cl)ncn1 (centres undefined),inactive: 0.09%
16,CC(C)(C)C(=O)NC(Sc1ccncn1)C(Cl)(Cl)Cl (centres undefined),inactive: 4.81%
17,O=[N+]([O-])c1ncn(CCn2ncnc2[N+](=O)[O-])n1,inactive: -0.81%

row,Compound,inhibition
1,O=[N+]([O-])c1cccc(NC2=NCC(CBr)S2)c1 (centres undefined),inactive: 6.64%
2,COC(=O)C1(C)COP(=O)(Nc2ccccc2)OC1 (centres undefined),inactive: -0.55%
3,O=C(O)CNc1ccc([As](=O)(O)O)cc1,inactive: -6.4%
4,O=P1(N(CCCl)CCCl)OCCCS1 (centres undefined),inactive: 3.69%
5,O=C(Nc1cc([As](=O)(O)O)ccc1O)c1ccccc1,inactive: 13%
6,C[N+]1=C2C=CC=CC=C2SC12C([N+](=O)[O-])=CC([N+](=O)[O-])=C[C-]2[N+](=O)[O-] (centres undefined),inactive: 5.83%
7,Nc1ccc([As](=O)(O)c2ccc(N)cc2)cc1,inactive: 5.92%
8,CCN(/C(=N/P(=O)(N1CCOCC1)N1CCOCC1)N1CCOCC1)c1ccc(OC)cc1,inactive: -9.77%
9,CN(C)C(=O)OCCc1n(C)cc[n+]1C,inactive: 3.84%
10,CC(C)=N/N=C(\N)N[N+](=O)[O-],inactive: -3.38%
11,CC1CCN(C(=O)Oc2c(Cl)cc(Cl)c3cccnc23)CC1,inactive: 4.7%
12,COc1ccc(C2=NCC(CBr)S2)cc1 (centres undefined),inactive: -9.67%
13,O=[N+]([O-])c1cccc2n[nH]nc12,inactive: -2.98%
14,CC(=O)N1C2C3N(C(C)=O)C1C1N(C(C)=O)C(C(N1C(C)=O)N3C(C)=O)N2C(C)=O,inactive: 4.76%
15,CCc1nc2c(n1)c1c(non1O)c1c2no[n+]1[O-],inactive: -1.74%
16,O=[N+]([O-])c1cc([N+](=O)[O-])c(CCNc2ccccc2)c([N+](=O)[O-])c1,inactive: -8.36%
17,Cc1ccc(NP(=O)(Oc2ccccc2)Oc2ccccc2)nc1,inactive: -14.1%
